Results reported in publication PMC7956722, “Expression of Luteinizing Hormone-Releasing Hormone (LHRH) and Type-I LHRH Receptor in Transitional Cell Carcinoma Type of Human Bladder Cancer” (Molecules, 2021).

Target: T1, LHRH receptors (human bladder cancer specimens, crude membranes) (Homo sapiens, UniProt P30968)
T1 construct: membrane homogenates of bladder cancer specimens containing 60–150 µg protein were incubated in duplicate; from tissue; host or cells: surgically resected human bladder cancer (transitional cell carcinoma) tissue, crude membrane fractions
T1 sequence (P30968 1-328): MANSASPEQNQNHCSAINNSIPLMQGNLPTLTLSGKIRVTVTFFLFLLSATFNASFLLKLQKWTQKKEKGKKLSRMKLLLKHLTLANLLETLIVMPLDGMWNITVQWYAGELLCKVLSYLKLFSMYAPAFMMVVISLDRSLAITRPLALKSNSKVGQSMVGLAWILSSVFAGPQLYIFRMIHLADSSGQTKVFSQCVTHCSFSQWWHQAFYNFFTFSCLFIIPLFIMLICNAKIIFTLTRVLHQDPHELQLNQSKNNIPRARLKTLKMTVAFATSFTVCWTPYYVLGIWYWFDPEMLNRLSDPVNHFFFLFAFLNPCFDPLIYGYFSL
Experiment: Radioligand binding / Scatchard analysis of [125I][D-Trp6]LHRH on membranes of human bladder cancer specimens
Settings: 12 human bladder cancer specimens examined
Procedure: Analysis of the typical displacement of radiolabeled [D-Trp^6] […] Biochemical parameters essential to establish the identity of specific binding sites were also determined.
The assay was performed as described earlier. […] At the end of the incubation, 125 µL aliquots of suspension were transferred onto the top of 1 mL of ice-cold binding buffer containing 1.5% BSA in microcentrifuge tubes. The tubes were centrifuged at 12,000× g for 3 min at 4 °C. Supernatants were aspirated and the pellet was counted in a gamma counter. Protein concentration was determined by the method of Bradford using a Bio-Rad protein assay kit (Bio-Rad Laboratories, Hercules, CA, USA). The final binding affinities were expressed as IC50 values and were calculated by using the LIGAND-PC computerized curve-fitting program of Munson and Rodbard.

pGlu-His-Trp-Ser-Tyr-Gly-Leu-Arg-Pro-Gly-NH2 [LHRH, decapeptide, pivotal hormone of the hypothalamo-pituitary gonadal axis]
binding sites found by ligand competition assay: a single class of high affinity binding sites
